Results on one compound are retold here after patent US7297489B2, “Mutations in and genomic structure of HERG—a long QT syndrome gene” (University of Utah Research Foundation, priority 1998, dated 2007).

The chains behind the UniProt entries cited, without tags or fusion partners. Where a name states a change or a piece, a line headed by the entry shows the natural chain unless it says otherwise.
UniProt Q12809: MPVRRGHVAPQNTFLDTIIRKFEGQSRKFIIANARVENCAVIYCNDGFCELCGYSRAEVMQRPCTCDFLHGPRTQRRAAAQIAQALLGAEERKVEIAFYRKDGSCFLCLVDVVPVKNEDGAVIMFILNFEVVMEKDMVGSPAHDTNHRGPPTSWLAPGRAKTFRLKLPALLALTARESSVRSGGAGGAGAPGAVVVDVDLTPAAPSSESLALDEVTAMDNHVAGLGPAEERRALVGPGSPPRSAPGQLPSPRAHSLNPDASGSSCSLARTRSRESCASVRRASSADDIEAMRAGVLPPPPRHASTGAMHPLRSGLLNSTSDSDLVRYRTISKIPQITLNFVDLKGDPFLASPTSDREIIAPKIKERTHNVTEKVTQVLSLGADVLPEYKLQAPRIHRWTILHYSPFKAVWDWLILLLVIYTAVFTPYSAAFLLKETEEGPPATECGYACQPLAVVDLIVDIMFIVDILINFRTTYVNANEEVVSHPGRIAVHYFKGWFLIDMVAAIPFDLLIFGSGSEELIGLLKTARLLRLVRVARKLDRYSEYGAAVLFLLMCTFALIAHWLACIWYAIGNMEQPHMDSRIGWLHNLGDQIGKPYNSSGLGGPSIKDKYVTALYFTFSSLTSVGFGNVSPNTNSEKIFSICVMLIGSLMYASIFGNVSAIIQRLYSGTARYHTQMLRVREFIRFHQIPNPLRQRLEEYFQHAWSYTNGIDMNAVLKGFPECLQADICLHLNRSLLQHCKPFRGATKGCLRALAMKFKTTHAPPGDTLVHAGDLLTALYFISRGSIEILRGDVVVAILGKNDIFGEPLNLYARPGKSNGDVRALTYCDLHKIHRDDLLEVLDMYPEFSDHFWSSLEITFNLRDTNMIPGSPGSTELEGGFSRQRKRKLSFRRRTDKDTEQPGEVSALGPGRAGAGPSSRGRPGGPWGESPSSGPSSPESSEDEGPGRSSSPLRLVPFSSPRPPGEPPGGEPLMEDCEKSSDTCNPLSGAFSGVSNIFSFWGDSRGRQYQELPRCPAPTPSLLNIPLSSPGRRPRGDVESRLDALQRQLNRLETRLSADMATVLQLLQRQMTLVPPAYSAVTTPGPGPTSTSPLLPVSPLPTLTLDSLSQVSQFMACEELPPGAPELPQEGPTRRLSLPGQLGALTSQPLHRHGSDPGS

The test system of one data set is IKr of cardiac myocytes. The conditions noted are these: nM concentrations; cited from earlier work.
In a further data set the target is HERG (Homo sapiens, UniProt Q12809). Put plainly: HERG current in Xenopus oocytes injected with HERG cRNA, two-microelectrode voltage clamp. Particulars: 1 μM, oocytes incubated up to 4 hours.

“Also recorded” adds a separate entry of the source.

As for `CS(=O)(=O)Nc1ccc2c(c1)[C@H](O)CC1(CCN([C@@H]3CCc4cc(C#N)ccc4C3)CC1)O2` [MK-499], the “block of IKr” value in the data set on IKr of cardiac myocytes is listed as “blocked”. In addition, the “block of HERG current by methanesulfonanilides” value at HERG is on record as “neither E-4031 nor MK-499 at a concentration of 1 μM blocked HERG current; also recorded: not blocked; also recorded: (1 μM - no effect)”.
